Test results taken from patent US20260382635A1, “NITROSYL-HEME FORMULATIONS FOR THE TREATMENT OF CARDIOVASCULAR CONDITIONS, HEMOLYSIS, AND THE STABILIZATION OF CELL-FREE HEME MOLECULES” (published 2026).

Tested on: mice
Assay: Changes in murine mean arterial pressure (MAP)
Settings: for time course of MAP after injection, words: i.v.
Experimental: A total of 70 male C57BL/6J mice (the Jackson Laboratory), aged between 12 to 14 weeks, were anesthetized by isoflurane (2.5%) for all experiments. Mice were in rooms maintaining 12/12 h light/dark cycles at 20-26 °C and 30-70% relative humidity. 10 of these total mice were used to establish the parameters of the model. Body temperature was maintained at 37 °C by a heating pad connected to heat pump (Androit). Catheters were implanted for carotid artery and jugular vein. Arterial blood pressure was continuously recorded through a blood pressure transducer (MLT699, ADInstrument) connected to an 8-channel Powerlab (ADInstrument). A tracheal tube was introduced and connected to a rodent ventilator (Model 849, MidiVent). Upon completion, in some animals, the fraction of inspiratory O2 was decreased from 21% to 10% to induce hypoxia. 75 μL of L-NAME was administered intravenously in a bolus at a dose of 10 mg/kg bodyweight. Ten minutes after L-NAME injection, animals were injected with 50 μL of NO-ferroheme, normal saline (NS), NO control, or freshly prepared GSNO^77 control for 4 times at 10-minute intervals. An NO-ferroheme in albumin stock was prepared via a concentrated version of the direct method as described above: 300 μM ferric heme was mixed anaerobically on a Schlenk line with 3 mM GSH and 600 μM NO in 500 μM albumin using air-tight Hamilton syringes. NO controls were generated similarly and comprised 300 μM dissolved NO with 3 mM GSH in anaerobic albumin solution. Likewise, GSNO stocks comprised 300 μM GSNO with 3 mM GSH in anaerobic albumin solution. Each of these stocks (NO-ferroheme, NO control, or GSNO control) were handled identically and diluted further in air with 500 μM albumin solution before injection by 1000-, 100-, and 10-fold. Mean arterial pressure (MAP) values were obtained by processed the recorded arterial pressure data with LabChart 7.3.8 (ADInstruments). To quantify changes ΔMAPmax was determined, defined as the average MAP before an injection (average of 3 to 5 time points) subtracted from the maximum change within 3 minutes after injection (average of 3-5 time points) for each species at a given concentration.
Using male C57BL/6J mice, catheters were inserted into the right carotid artery and jugular vein for monitoring MAP and for dose injections, respectively. Fresh NO-ferroheme stock solutions were generated in an anaerobic environment by mixing 300 μM hemin, 3 mM glutathione, 600 μM NO, and 500 μM bovine serum albumin in PBS. To establish that vasodilation was independent of endogenous eNOS-derived NO, mice were first treated with the NOS inhibitor L-NG-nitroarginine methyl ester (L-NAME). Four doses of NO-ferroheme were administered at estimated blood concentrations of 7.5 nM, 75 nM, 0.75 μM, and 7.5 μM. Doses were injected intravenously every ten minutes, long enough for the blood pressure to stabilize.
Injections of NO-ferroheme solution in hypoxic animals were characterized by a rapid, transient relaxation, as monitored by changes in MAP. The MAP almost completely returned to the L-NAME induced baseline after ten minutes when compared to normal saline controls (FIG. 5A). […] These changes were also significant versus normal saline at 75 nM under normoxic conditions (p=0.0002), 0.75 μM and 7.5 μM (p<0.0001, FIG. 5D, open squares vs circles).
This synthesis can involve multiple potential vasodilators including NO itself, GSNO, and NO-ferroheme. Therefore, it was desirable to define the dominant vasodilating species. The vasodilation potency of NO and GSNO was compared. Fresh stocks of NO were made (300 μM NO, 3 mM glutathione, and 500 μM albumin) and mice were injected in 10-minute intervals at the same dosing as the NO-ferroheme albumin injections (7.5 nM, 75 nM, 0.75 μM, and 7.5 μM dissolved NO) under 10% hypoxia and normoxia (FIGS. 5A and 5B, hashed traces). […]

SMILES	change in MAP vs normal saline, words (7.5 nM-7.5 μM, except highest dose of dissolved NO (7.5 μM))	vasodilation, words (hypoxia, L-NAME, 7.5 nM, 75 nM, 0.75 μM, 7.5 μM i.v.)	vasodilation under hypoxia vs normoxia, words (10% vs 21% oxygen)	vasodilatory response vs nitrite, words (comparable hypoxic conditions)	time course of MAP after injection, words (hypoxia, L-NAME)	time course of MAP after injection, words (normoxia, L-NAME)
[N]=O	no significant changes in MAP	elicited little vasodilatory response	–	–	–	–
C=CC1=C(C)c2cc3[nH]c(cc4nc(cc5[nH]c(cc1n2)c(C)c5CCC(=O)O)C(CCC(=O)O)=C4C)c(C)c3C=C.[Fe+2]	–	–	elicits similar vasodilation under hypoxia and normoxia	more potent than treatment with nitrite	almost completely returned to the L-NAME induced baseline after ten minutes	rapid drop in MAP followed by blood pressure recovery to baseline MAP
